Amino acid sequences for entries named in this document (tags omitted). A change or cut given only in a name is not applied to a line headed by its entry.
UniProt P48048: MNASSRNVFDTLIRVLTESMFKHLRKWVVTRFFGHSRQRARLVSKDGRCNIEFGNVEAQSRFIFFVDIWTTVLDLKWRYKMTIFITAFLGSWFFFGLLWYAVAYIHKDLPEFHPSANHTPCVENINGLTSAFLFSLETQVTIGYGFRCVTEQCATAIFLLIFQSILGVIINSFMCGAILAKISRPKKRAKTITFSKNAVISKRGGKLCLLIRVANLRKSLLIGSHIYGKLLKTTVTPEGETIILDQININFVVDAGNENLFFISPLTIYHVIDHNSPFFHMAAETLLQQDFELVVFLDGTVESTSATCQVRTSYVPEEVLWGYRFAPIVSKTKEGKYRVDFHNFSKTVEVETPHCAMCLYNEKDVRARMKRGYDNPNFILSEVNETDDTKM

In patent US9573961B2, “Inhibitors of the renal outer medullary potassium channel” (Merck Sharp & Dohme Corp., priority 2012, dated 2017):

What was measured:
[1] = biological target: Kir1.1 (ROMK1) (Homo sapiens (Human), UniProt P48048); experiment: Electrophysiology Assay (whole cell voltage clamp, IonWorks Quattro); format: cell-based; settings: Chinese hamster ovary cells stably expressing Kir1.1; block during voltage step to 0 mV
Protocol: Chinese hamster ovary cells stably expressing Kir1.1 channels were maintained in T-75 flasks in cell culture media in a humidified 10% CO2 incubator at 37° C. Prior to an experiment, Kir1.1 expression was induced by overnight incubation with 1 mM sodium butyrate. […] After centrifugation, the cell pellet was resuspended in approximately 4.0 mL of bath solution and placed in the IonWorks instrument. The intracellular solution consisted of (in mM): 80 K gluconate, 40 KCl, 20 KF, 3.2 MgCl2, 3 EGTA, 5 Hepes, pH 7.4. Electrical access to the cytoplasm was achieved by perforation in 0.13 mg/mL amphotericin B for 4 min. […] Voltage protocols and current recordings were performed using the IonWorks HT software/hardware system. Currents were sampled at 1 kHz. No correction for liquid junction potentials was used. The test pulse, consisting of a 100 ms step to 0 mV from a holding potential of −70 mV, followed by a 100 ms voltage ramp from −70 mV to +70 mV, was applied before and after a 6 min compound incubation period. Test compounds were prepared by diluting DMSO stock solutions into the bath solution at 3× the final concentration and placed in the instrument in 96-well polypropylene plates. Current amplitudes were measured using the IonWorks software.

[2] = biological target: hROMK (hKir1.1) (Homo sapiens (Human), UniProt P48048); experiment: Thallium Flux Assay (ROMK channel functional thallium flux, FLIPR-Tetra); format: cell-based; settings: HEK293 cells stably expressing hROMK (hKir1.1)
Protocol: Cell Culture Conditions—HEK293 cells stably expressing hROMK (hKir1.1) were grown at 37° C. in a 10% CO2 humidified incubator in complete growth media: Dulbecco's Modified Eagle Medium supplemented with non-essential amino acids, Penicillin/Streptomycin/Glutamine, G418 and FBS. At >80% confluency, aspirate the media from the flask and rinse with 10 mL Calcium/Magnesium-free PBS. […] To dislodge the cell, gently bang the side of the flask with your hand. Triturate the cells completely and then transfer the cells to 25 mL complete media. Centrifuge at 1,500 rpm for 6 min followed by resuspension in complete growth media and determine cell concentration. […] Under ideal growth conditions and appropriate tissue culture practices, this cell line is stable for 40-45 passages.
FluxOR Kit Components (Invitrogen F10017) • FluxOR™ Reagent (Component A) • FluxOR™ Assay Buffer (Component B)—10× Concentrate • PowerLoad™ Concentrate (Component C)—100× Concentrate • Probenecid (Component D)—Lyophilized sample is kept at −20° C. Water soluble, 100× after solubilization in 1 mL water. […] Store at 4° C. • Thallium sulfate (Tl2SO4) Concentrate (Component G)—50 mM in water. Store at 4° C. • DMSO (dimethyl sulfoxide, Component H)—1 mL (100%)
Can be stored at room temperature • Stimulant Buffer (prepared at 5× final concentration in 1× FluxOR™ Chloride-Free Buffer): 7.5 mM Thallium sulfate and 0.75 mM Potassium sulfate (to give a final assay concentration of 3 mM Thallium/0.3 mM Potassium). Store at 4° C. when not in use. If kept sterile, this solution is good for months.
Assay Protocol—The ROMK channel functional thallium flux assay is performed in 384 wells, using the FLIPR-Tetra instrument. HEK-hKir1.1 cells are seeded in Poly-D-Lysine microplates and kept in a 37° C.-10% CO2 incubator overnight. On the day of the experiment, the growth media is replaced with the FluxOR™ reagent loading buffer and incubated, protected from light, at ambient temperature (23-25° C.) for 90 min. The loading buffer is replaced with assay buffer±test compound followed by 30 min incubation at ambient temperature, where the Thallium/Potassium stimulant is added to the microplate.
Step Protocol • 1. Seed HEK-hKir1.1 cells (50 μl at 20,000 cells/well) in 384-well PDL coated Microplates • 2. Allow cells to adhere overnight in humidified 37° C./10% CO2 incubator • 3. Completely remove cell growth media from microplate and replace with 25 μl loading buffer • 4. Incubate Microplate at room temperature, protected form light, for 90 min • 5. Remove loading buffer and replace with 25 μl 1× Assay Buffer±test compound. • 6. Incubate microplate at room temperature, protected from light, for 30 min • 7. […] Excitation=400 nm, Emission=460 & 580 nm. Collect data for ˜10 min.
Data Calculation—The fluorescence intensity of wells containing 3 μM of a standard control ROMK inhibitor of the present invention is used to define the ROMK-sensitive component of thallium flux. Fluorescence in the presence of test compounds is normalized to control values to provide % fluorescence change.

| Structure (SMILES) | IC50 [1] [µM] | IC50 [2] [µM] |
| --- | --- | --- |
| O=C1OCCc2cc([C@@H]3CN4CCN(C(=O)C5CCc6cc(-n7cnnn7)ccc65)C[C@H]4CO3)ccc21 (single isomer, unassigned) [Example 86] | 0.34 | – |
| Cc1c([C@@H]2CN3CCN(C(=O)C4CCCc5cc(-n6cnnn6)ccc54)C[C@H]3CO2)ccc(F)c1C#N (single isomer, unassigned) [Example 92] | 0.3 | 0.74 |
| O=C1OCCc2cc([C@@H]3CN4CCN(C(=O)C5CCc6cc(-n7cnnn7)ccc65)C[C@H]4CO3)ccc21 (single isomer, unassigned) [Example 87] | 0.2 | – |
| O=C1OCCc2cc([C@@H]3CN4CCN(C(=O)C5CCc6cc(-n7cnnn7)ccc65)C[C@H]4CO3)ccc21 (stereo partly drawn) [Example 22, 6-[(3R,9aS)-8-{[5-(1H-tetrazol-1-yl)-2,3-dihydro-1H-inden-1-yl]carbonyl}octahydropyrazino[2,1-c][1,4]oxazin-3-yl]-3,4-dihydro-1H-isochromen-1-one] | 0.13 | 0.14 |
| C[C@@H]1Cc2cc([C@@H]3CN4CCN(C(=O)C5CCc6cc(-n7cnnn7)ccc65)C[C@H]4CO3)ccc2C(=O)O1 (single isomer, unassigned) [Example 85] | 0.2 | – |
| C[C@@H]1Cc2cc([C@@H]3CN4CCN(C(=O)C5CCc6cc(-n7cnnn7)ccc65)C[C@H]4CO3)ccc2C(=O)O1 (single isomer, unassigned) [Example 84] | 0.24 | – |
| Cc1c([C@@H]2CN3CCN(C(=O)C4CCCc5cc(-n6cnnn6)ccc54)C[C@H]3CO2)ccc(F)c1C#N (single isomer, unassigned) [Example 91] | 0.39 | 0.19 |
| Cc1c([C@@H]2CN3CCN(C(=O)C4CCCc5cc(-n6cnnn6)ccc54)C[C@@H]3CO2)ccc(F)c1C#N (single isomer, unassigned) [Example 94] | 0.36 | 0.52 |
| Cc1c([C@H]2CN3CCN(C(=O)C4CCCc5cc(-n6cnnn6)ccc54)C[C@@H]3CO2)ccc(F)c1C#N (single isomer, unassigned) [Example 95] | – | 0.58 |
| Cc1c([C@H]2CN3CCN(C(=O)C4CCCc5cc(-n6cnnn6)ccc54)C[C@H]3CO2)ccc(F)c1C#N (single isomer, unassigned) [Example 93] | 0.39 | 0.27 |
